Source: patent publication US5858992A, “Non-reducing saccharides, their preparation and use” (Kabushiki Kaisha Hayashibara Seibutsu Kagaku Kenkyujo, priority 1995, dated 1999)

Key:
bifid bacteria [1] = test: Influence on growth-promoting activity for bifid bacteria in vivo (healthy volunteers, feces); parameters: species or system human; conditions: for Weight of feces: five healthy volunteers, mean ± SD
Procedure: The weight of daily feces before and after the 14-day administration tests, the relative change of feces' weight, the feces' pH, the total number of microorganisms per g of feces, the percentage of the number of bifid bacteria to the total number of microorganisms in feces, and the relative change of the total number of bifid bacteria were measured, followed by calculating the mean value of the five volunteers. Among these measurements, the total number of microorganisms was determined in accordance with the method as reported in "A Color Atlas of Anaerobic Bacteria", pp.53-65 (1984), edited by Tomotari MITSUOKA, published by Kabushiki Kaisha Sobunsha, Tokyo, Japan (1984): The colonies grown in 13 different types of media excluding M10 medium were judged for which genus they belong to and counted for cells. The cell count obtained with a specific medium, which gave the highest number of microorganisms for each genus, was determined to be a real cell count. The total cell count of microorganisms of all the genera was determined to be the total number of microorganisms in each volunteer's feces.

[2] = test system: Streptococcus faecalis IAM 10065; test: Assimilation test by intestinal microorganism; format: cell-based; conditions: 0.5 w/v % saccharide in PYF broth, 37° C., 96 hours; free of sugar: -
[3] = test system: Bacteroides uniformis JCM 5828; test: Assimilation test by intestinal microorganism; format: cell-based; conditions: 0.5 w/v % saccharide in PYF broth, 37° C., 96 hours; free of sugar: -
[4] = test system: Bacteroides distasonis JCM 5825; test: Assimilation test by intestinal microorganism; format: cell-based; conditions: 0.5 w/v % saccharide in PYF broth, 37° C., 96 hours; free of sugar: -
bifid bacteria [5] = test: Assimilation test by intestinal microorganism, overall judgement; format: cell-based; conditions: compared with glucose and trehalose as a control
Procedure: To evaluate the growth rate of and to judge the assimilability by the microorganisms, the resultant broth was diluted 5-fold, and the turbidity of the dilution was measured at a wavelength of 750 nm in a 1-cm light-path cell. […] The criteria were in Table 3, and the results were in Tables 4 and 5: […]

[6] = test system: Escherichia coli IFO 3301; test: Assimilation test by intestinal microorganism; format: cell-based; conditions: 0.5 w/v % saccharide in PYF broth, 37° C., 96 hours; free of sugar: -
[7] = test system: Bacteroides vulgatus JCM 5826; test: Assimilation test by intestinal microorganism; format: cell-based; conditions: 0.5 w/v % saccharide in PYF broth, 37° C., 96 hours; free of sugar: -
[8] = test system: Clostridium ramosum JCM 1298; test: Assimilation test by intestinal microorganism; format: cell-based; conditions: 0.5 w/v % saccharide in PYF broth, 37° C., 96 hours; free of sugar: -
[9] = test system: Eubacterium aerofaciens ATCC 25986; test: Assimilation test by intestinal microorganism; format: cell-based; conditions: 0.5 w/v % saccharide in PYF broth, 37° C., 96 hours; free of sugar: -
[10] = After 10 g orally daily for 14 days

SMILES	Weight of feces (bifid bacteria [1]; [10]) [g/day]	Relative changes of feces' weight (bifid bacteria [1]; After 10 g orally daily for 14 days, before = 100)	Relative changes of feces' weight (bifid bacteria [1]; […])	Judgement of assimilation (turbidity at 750 nm, ×5) [2]	Judgement of assimilation (turbidity at 750 nm, ×5) [3]	Judgement of assimilation (turbidity at 750 nm, ×5) [4]	Selective assimilability by bifid bacteria, in words (bifid bacteria [5])	Judgement of assimilation (turbidity at 750 nm, ×5) [6]	Judgement of assimilation (turbidity at 750 nm, ×5) [7]	Judgement of assimilation (turbidity at 750 nm, ×5) [8]	Judgement of assimilation (turbidity at 750 nm, ×5) [9]
OC[C@H]1O[C@H](OC[C@H]2O[C@H](O[C@H]3O[C@H](CO)[C@@H](O)[C@H](O)[C@H]3O)[C@H](O)[C@@H](O)[C@@H]2O)[C@H](O)[C@@H](O)[C@@H]1O [O-α-D-glucopyranosyl -(1→6)-α-D-glucopyranosyl α-D-glucopyranoside]	140 ± 37										
OC[C@H]1O[C@H](OC[C@H]2O[C@H](O[C@H]3O[C@H](CO[C@H]4O[C@H](CO)[C@@H](O)[C@H](O)[C@H]4O)[C@@H](O)[C@H](O)[C@H]3O)[C@H](O)[C@@H](O)[C@@H]2O)[C@H](O)[C@@H](O)[C@@H]1O [α-Isomaltosyl α-isomaltoside, O-α-D-glucopyranosyl -(1→6)-α-D-glucopyranosyl-O-α-D-glucopyranosyl-(1→6) -α-D-glucopyranoside]	142 ± 40	111	100								
OC[C@H]1O[C@H](OC[C@H]2O[C@H](OC[C@H]3O[C@H](O[C@H]4O[C@H](CO)[C@@H](O)[C@H](O)[C@H]4O)[C@H](O)[C@@H](O)[C@@H]3O)[C@H](O)[C@@H](O)[C@@H]2O)[C@H](O)[C@@H](O)[C@@H]1O [α-Isomaltotriosyl α-glucoside, O-α-D-glucopyranosyl-(1→6)-O-α-D-glucopyranosyl-(1→6) α-D-glucopyranosyl α-D-glucopyranoside]				- (Less than 0.1)	- (Less than 0.1)	- (Less than 0.1)	high in the selective assimilability by bifid bacteria	- (Less than 0.1)	- (Less than 0.1)	- (Less than 0.1)	- (Less than 0.1)
